Cyclic peptide permeability, from CycPeptMPDB

Collected by the curators of CycPeptMPDB (Li et al. 2023) from Comeau et al. 2021, doi:10.1021/acs.jmedchem.0c02036.

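Conditions beyond the assay type are not listed; see the original paper. The list need not hold all peptides of the study. Entries at the database's floor value (log10 P of -10) are not listed.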

PAMPA measures passive passage through an artificial lipid membrane.
Caco-2: transport across a human colon carcinoma cell monolayer.
P is given in units of 10^-6 cm/s (from log10 values with two decimals); larger means faster passage.
"n/a" marks a cell with nothing listed here.

PAMPA (10^-6 cm/s) | Caco-2 (10^-6 cm/s) | compound
0.066 | 14 | CC(C)C[C@@H]1NC(=O)[C@H](C)NC(=O)C[C@@H](C)CCNC(=O)[C@H](Cc2ccccc2)NC1=O
1.1 | 27 | CC(C)CN1CC(=O)N[C@@H](Cc2ccccc2)C(=O)NCC[C@H](C)CC(=O)N[C@@H](C)C1=O
0.14 | 5.6 | CC(C)C[C@@H]1NC(=O)CN(C)C(=O)CCC[C@H](C)NC(=O)[C@H](Cc2ccccc2)NC1=O
0.032 | 10 | CC(C)C[C@@H]1NC(=O)[C@H](C)NC(=O)C[C@H](C)CCNC(=O)CN(Cc2ccccc2)C1=O
0.12 | 12 | CC(C)C[C@@H]1NC(=O)[C@H](C)NC(=O)CC[C@H](C)CNC(=O)[C@H](Cc2ccccc2)NC1=O
0.3 | n/a | CC(C)C[C@]1(C)NC(=O)[C@H](C)NC(=O)[C@@H](C)CCCNC(=O)[C@H](Cc2ccccc2)NC1=O
1.6 | 33 | CC(C)CN1CC(=O)N[C@@H](Cc2ccccc2)C(=O)NCCC[C@H](C)C(=O)N[C@@H](C)C1=O
0.98 | n/a | CC(C)C[C@H]1C(=O)N[C@@H](Cc2ccccc2)C(=O)NCCC[C@H](C)C(=O)N[C@@H](C)C(=O)N1C
0.032 | 3.1 | CC(C)C[C@@H]1NC(=O)[C@H](C)NC(=O)CCC[C@H](C)NC(=O)[C@H](Cc2ccccc2)NC1=O
0.066 | 18 | CC(C)C[C@@H]1NC(=O)[C@H](C)NC(=O)CCCCNC(=O)CN(Cc2ccccc2)C1=O
0.062 | n/a | CC(C)CN1CC(=O)N[C@@H](C)C(=O)N[C@@H](Cc2ccccc2)C(=O)NCCCCC1=O
0.21 | 21 | CC(C)C[C@@H]1NC(=O)[C@H](C)NC(=O)CC[C@@H](C)CNC(=O)CN(Cc2ccccc2)C1=O
0.18 | 11 | CC(C)C[C@@H]1NC(=O)[C@H](C)NC(=O)C[C@H](C)CCNC(=O)[C@H](Cc2ccccc2)NC1=O
0.021 | 2.8 | CC(C)C[C@@H]1NC(=O)CN(C)C(=O)C[C@H](C)CCNC(=O)[C@H](Cc2ccccc2)NC1=O
0.23 | 11 | CC(C)C[C@@H]1NC(=O)CN(C)C(=O)CC[C@H](C)CNC(=O)[C@H](Cc2ccccc2)NC1=O
0.062 | 6 | CC(C)CN1CC(=O)N[C@@H](Cc2ccccc2)C(=O)N[C@@H](C)CCCC(=O)N[C@@H](C)C1=O
0.1 | 3.5 | CC(C)C[C@@H]1NC(=O)[C@H](C)NC(=O)CCCCNC(=O)[C@H](Cc2ccccc2)NC1=O
0.066 | 5.9 | CC(C)C[C@@H]1NC(=O)CN(C)C(=O)CCC[C@@H](C)NC(=O)[C@H](Cc2ccccc2)NC1=O
1.2 | 16 | CC(C)CN1CC(=O)N[C@@H](Cc2ccccc2)C(=O)NC[C@H](C)CCC(=O)N[C@@H](C)C1=O
0.23 | 7.6 | CC(C)C[C@@H]1NC(=O)[C@H](C)NC(=O)[C@@H](C)CCCNC(=O)[C@H](Cc2ccccc2)NC1=O
0.47 | n/a | CC(C)C[C@@H]1NC(=O)CCCCNC(=O)[C@H](Cc2ccccc2)NC(=O)CN(C)C1=O
2.2 | 20 | CC(C)CN1CC(=O)N[C@@H](Cc2ccccc2)C(=O)NC[C@@H](C)CCC(=O)N[C@@H](C)C1=O
0.039 | n/a | CC(C)C[C@H]1NC(=O)[C@H](C)NC(=O)[C@@H](C)CCCNC(=O)[C@H](Cc2ccccc2)NC1=O
4.1 | 30 | CC(C)CN1CC(=O)N[C@@H](Cc2ccccc2)C(=O)N[C@H](C)CCCC(=O)N[C@@H](C)C1=O
0.069 | 8.9 | CC(C)C[C@@H]1NC(=O)[C@H](C)NC(=O)[C@H](C)CCCNC(=O)CN(Cc2ccccc2)C1=O
0.023 | 3.5 | CC(C)C[C@@H]1NC(=O)CN(C)C(=O)CC[C@@H](C)CNC(=O)[C@H](Cc2ccccc2)NC1=O
0.32 | 10 | CC(C)C[C@@H]1NC(=O)[C@H](C)NC(=O)C[C@@H](C)CCNC(=O)CN(Cc2ccccc2)C1=O
0.49 | 18 | CC(C)C[C@@H]1NC(=O)[C@H](C)NC(=O)[C@@H](C)CCCNC(=O)CN(Cc2ccccc2)C1=O
0.1 | 15 | CC(C)C[C@@H]1NC(=O)[C@H](C)NC(=O)CC[C@H](C)CNC(=O)CN(Cc2ccccc2)C1=O

The last 4 entries again:

compound | PAMPA (10^-6 cm/s) | Caco-2 (10^-6 cm/s)
CC(C)C[C@@H]1NC(=O)CN(C)C(=O)CC[C@@H](C)CNC(=O)[C@H](Cc2ccccc2)NC1=O | 0.023 | 3.5
CC(C)C[C@@H]1NC(=O)[C@H](C)NC(=O)C[C@@H](C)CCNC(=O)CN(Cc2ccccc2)C1=O | 0.32 | 10
CC(C)C[C@@H]1NC(=O)[C@H](C)NC(=O)[C@@H](C)CCCNC(=O)CN(Cc2ccccc2)C1=O | 0.49 | 18
CC(C)C[C@@H]1NC(=O)[C@H](C)NC(=O)CC[C@H](C)CNC(=O)CN(Cc2ccccc2)C1=O | 0.1 | 15